Assay results from US20240025918A1, “KRAS G12D Inhibitors” (Jacobio Pharmaceuticals Co., Ltd, priority 2020, published 2024).

Sequences of proteins named here, by UniProt entry; tags and fusion partners are left off. Residues count along the entry.
UniProt P01116, 1-169 isoform 2 G12D limits assumed: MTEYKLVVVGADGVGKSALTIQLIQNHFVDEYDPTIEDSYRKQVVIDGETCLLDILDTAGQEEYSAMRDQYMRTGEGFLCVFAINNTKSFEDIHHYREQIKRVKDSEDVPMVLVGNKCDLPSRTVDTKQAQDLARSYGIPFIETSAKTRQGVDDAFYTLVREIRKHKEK

Key:
AGS = assay: Cell growth inhibition assay, AGS (CellTiter-Glo); conditions: read-out: AGS IC50; AGS cell viability, 6 days incubation
Method: AGS cultured in F12K medium (Gibco) containing 10% fetal bovine serum (Gibco). Cells in culture medium were plated in 96-well plates at a concentration of 500 cells/well (100 μL/well) and allowed to attach overnight.
(§1) The next day, compounds were diluted in culture medium and added to the plates. After 6 days incubation in a 37° C./5% CO2 cell incubator, the cell viability was detected by CellTiter-Glo® Luminescent Cell Viability Assay kit (Promega). Luminescent signals were read on Tecan Spark multimode microplate reader and analyzed using a 4-parameter logistic model to calculate IC50 values.

[1] = system: AGS cells expressing KRAS G12D; assay: Phospho-ERK1/2(THR202/TYR204) HTRF assay; conditions: Phospho-ERK1/2 in AGS cells, 2 hours incubation
Method: AGS cells expressing KRAS G12D were cultured in F12K medium (Gibco) containing 10% fetal bovine serum (Gibco). The AGS cells in culture medium were seeded in 96-well plates at a concentration of 40,000 cells/well and then put in a 37° C./5% CO2 cell incubator to incubate overnight. The next day, culture medium was removed and the compound diluted in assay medium (F12K, 0.1% FBS) was added in each well. After 2 hours incubation in a 37° C./5% CO2 cell incubator, the assay medium in 96-well plates was removed, then 50 μL of 1× blocking reagent-supplemented lysis buffer (Cisbio) was added and the plates were incubated at 25° C. for 45 min with shaking. 10 μL of cell lysates from the 96-well plates were transferred to a 384-well plate (Greiner) containing 2.5 μL/well HTRF® pre-mixed antibodies (Cisbio 64AERPEH). Incubate 4 hours at 25° C. and then read HTRF signals on Tecan Spark multimode microplate reader. The data were analyzed using a 4-parameter logistic model to calculate IC50 values.

AsPC-1 = assay: Cell growth inhibition assay, AsPC-1 (CellTiter-Glo); conditions: read-out: AsPC-1 IC50; AsPC-1 cell viability, 6 days incubation
Method: AsPC-1 cultured in RPMI-1640 medium (Gibco) containing 10% fetal bovine serum (Gibco). Cells in culture medium were plated in 96-well plates at a concentration of 1000 cells/well (100 μL/well) and allowed to attach overnight.
as §1

[2] = target: GDP-loaded HIS-KRAS(G12D, aa 1-169) (Homo sapiens, UniProt P01116, G12D); assay: SOS1 catalyzed nucleotide exchange assay (TR-FRET); conditions: 4 hours at 25° C.
Method: GDP-loaded HIS-KRAS(G12D, aa 1-169) was pre-incubated with a compound in the presence of 10 nM GDPin a 384-well plate (Greiner) for 15 min, then purified SOS1 ExD(Flag tag, aa 564-1049), BODIPY™ FL GTP (Invitrogen) and MAb (monoclonal antibody) Anti 6HIS-Tb cryptate Gold (Cisbio) were added to the assay wells (Final concentration: 1.5 nM GDP-loaded HIS-KRAS(G12D), 5 nM GDP, 0.5 μM SOS1 ExD, 80 nM BODIPY™ FL GTP, 52.5 ng/mL MAb Anti 6HIS-Tb cryptate Gold) and incubated for 4 hours at 25° C. Wells containing same percent of DMSO served as vehicle control, and wells without KRAS served as low control. TR-FRET signals were read on Tecan Spark multimode microplate reader. The parameters were F486: Excitation 340 nm, Emission 486 nm, Lag time 100 μs, Integration time 200 μs; F515: Excitation 340 nm, Emission 515 nm, Lag time 100 μs, Integration time 200 μs. TR-FRET ratios for each individual wells were calculated by equation: TR-FRET ratio=(Signal F515/Signal F486)*10000. The percent of activation of compounds treated wells were normalized between vehicle control and low control (% Activation=(TR-FRET ratioCompound treated−TR-FRET ratioLow control)/(TR-FRET ratioVehicle control−TR-FRET ratioLow control)*100%). Then the data were analyzed by fitting a 4-parameter logistic model or calculating in Excel to calculate IC50 values.

[3] = target: GppNp-loaded HIS-KRAS(G12D, aa 1-169) and cRAF RBD (Homo sapiens, UniProt P01116, G12D); assay: GTP-KRAS and cRAF interaction assay (HTRF); conditions: 2 hours at 25° C.
Method: GppNp-loaded HIS-KRAS(G12D, aa 1-169) was pre-incubated with a compound in the presence of 200 μM GTP in a 384-well plate (Greiner) for 15 min, then cRAF RBD(GST tag, aa 50-132, CreativeBioMart), MAb Anti GST-d2 (Cisbio) and MAb Anti 6HIS-Tb cryptate Gold (Cisbio) were added to the assay wells (Final concentration: 2.0 nM GppNp-loaded HIS-KRAS(G12D), 100 μM GTP, 35 nM cRAF RBD, 1 μg/mL MAb Anti GST-d2, 52.5 ng/mL MAb Anti 6HIS-Tb cryptate Gold) and incubated for 2 hours at 25° C. Wells containing same percent of DMSO served as vehicle control, and wells without KRAS served as low control. HTRF signals were read on Tecan Spark multimode microplate reader and HTRF ratios were calculated under manufacturer's instructions. The percent of activation of compounds treated wells were normalized between vehicle control and low control (% Activation=(HTRF ratioCompound treated−HTRF ratioLow control)/(HTRF ratioVehicle control−HTRF ratioLow control)*100%). Then the data were analyzed by fitting a 4-parameter logistic model or calculating in Excel to calculate IC50 values.

Compound | IC50 (AGS) [nM] | IC50 [1] [nM] | IC50 (AsPC-1) [nM] | IC50 [2] [nM] | IC50 [3] [nM]
C#Cc1cccc2cc(O)cc(-c3c(F)cc4c(N5CC6CCC(C5)N6)nc(OCC5(CN6CCC7(CC6)CC7(F)F)CC5)nc4c3F)c12 (single isomer, unassigned) | 4.61 | 20.2 | 14.4 | 1.48 | 17.3
C#Cc1cccc2cc(O)cc(-c3c(F)cc4c(N5CC6CCC(C5)N6)nc(OCC5(CN6C[C@H]7C[C@@H]6CO7)CC5)nc4c3F)c12 (single isomer, unassigned) | 0.688 | 3.79 | 12.6 | 1.01 | –
C#Cc1cccc2cc(O)cc(-c3c(F)cc4c(N5CC6CCC(C5)N6)nc(OCC5(CN6CC7COCC7C6)CC5)nc4c3F)c12 (single isomer, unassigned) [Compound 24A] | – | – | – | > 100 | > 10000
C#Cc1cccc2cc(O)cc(-c3c(F)cc4c(N5CC6CCC(C5)N6)nc(OCC5(CN6CC7COCC7C6)CC5)nc4c3F)c12 (single isomer, unassigned) [Compound 24B] | 2.82 | 7.67 | 60.1 | 0.912 | 21.5
C#Cc1cccc2cc(O)cc(-c3c(F)cc4c(N5CC6CCC(C5)N6)nc(OCC5(CN6CC7CC6CO7)CC5)nc4c3F)c12 (single isomer, unassigned) [Compound 36A] | 2.77 | 1.71 | 11.8 | 0.874 | 19.2
